The results in this text go back to paper PMC3554773, “Screening of a Specific Peptide Binding to VPAC1 Receptor from a Phage Display Peptide Library” (PLoS ONE, 2013).

The chains behind the UniProt entries cited, without tags or fusion partners. Residues count along the entry.
UniProt P32241, 31-457: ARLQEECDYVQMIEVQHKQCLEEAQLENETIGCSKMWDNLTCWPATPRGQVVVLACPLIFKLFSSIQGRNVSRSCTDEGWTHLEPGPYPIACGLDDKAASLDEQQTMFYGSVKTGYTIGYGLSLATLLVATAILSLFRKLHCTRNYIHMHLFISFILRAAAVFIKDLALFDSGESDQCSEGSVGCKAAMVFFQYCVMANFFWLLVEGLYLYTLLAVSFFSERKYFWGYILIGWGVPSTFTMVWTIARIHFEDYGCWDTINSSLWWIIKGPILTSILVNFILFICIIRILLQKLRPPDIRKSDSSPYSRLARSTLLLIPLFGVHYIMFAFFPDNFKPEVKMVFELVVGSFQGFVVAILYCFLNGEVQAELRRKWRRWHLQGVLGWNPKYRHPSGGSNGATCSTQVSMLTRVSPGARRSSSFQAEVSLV

Assay [1] deals with T1, VPAC1 receptor (CHO-K1/VPAC1 cells) (Homo sapiens, UniProt P32241).
T1 construct: expressed in transfected cells
Briefly: competitive inhibition ELISA: binding of phage clone VP2 to CHO-K1/VPAC1 cells, inhibited by VIP. The note with it: VIP 0-100 µg/ml; 1×10^10 pfu phage VP2, 37°C, 2 h.

The target of assay [2] is T1, VPAC1 receptor (CHO-K1/VPAC1 cells). Briefly: flow cytometry, inhibition of FITC-VP2 binding to CHO-K1/VPAC1 cells. The note with it: competitor (VIP 50 µM) + FITC-VP2 10 µM, 1 h, room temperature.

`CC[C@H](C)[C@H](NC(=O)[C@H](CO)NC(=O)[C@H](CC(N)=O)NC(=O)[C@H](CC(C)C)NC(=O)[C@H](Cc1ccc(O)cc1)NC(=O)[C@H](CCCCN)NC(=O)[C@H](CCCCN)NC(=O)[C@@H](NC(=O)[C@H](C)NC(=O)[C@H](CCSC)NC(=O)[C@H](CCC(N)=O)NC(=O)[C@H](CCCCN)NC(=O)[C@H](CCCNC(=N)N)NC(=O)[C@H](CC(C)C)NC(=O)[C@H](CCCNC(=N)N)NC(=O)[C@@H](NC(=O)[C@H](Cc1ccc(O)cc1)NC(=O)[C@H](CC(N)=O)NC(=O)[C@H](CC(=O)O)NC(=O)[C@@H](NC(=O)[C@H](Cc1ccccc1)NC(=O)[C@@H](NC(=O)[C@H](C)NC(=O)[C@H](CC(=O)O)NC(=O)[C@H](CO)NC(=O)[C@@H](N)Cc1c[nH]cn1)C(C)C)[C@@H](C)O)[C@@H](C)O)C(C)C)C(=O)N[C@@H](CC(C)C)C(=O)N[C@@H](CC(N)=O)C(N)=O` [VIP, vasoactive intestinal peptide]: in assay [1], the “IC50, inhibition of phage clone VP2 binding” value is “approximately 9.1 µg/ml” and the “concentration above which significant inhibition of phage clone VP2 binding occurred” value is on record as “above 0.001 µg/ml”. In addition, in assay [2], the “effect on FITC-VP2 binding to CHO-K1/VPAC1 cells” value is “significantly inhibited”.
